Measured values taken from patent publication US20150057316A1, “NOVEL SULFONATE-BASED TRIMEBUTINE SALTS” (GICARE PHARMA INC., priority 2012, published 2015).

Tests used:
Caco-2 cells = assay: Caco-2 bidirectional permeability; type: in vitro ADME, human; details: class from Papp A-B; listed as 3-thiocarbamoylbenzenesulfonate moiety
Source text: Such a procedure helps understanding the suitability of the compound for oral dosing by measuring the rate of transport of the molecule across the Caco-2 cells, which have characteristics that resemble intestinal epithelial cells. Transport in both directions (apical to basolateral (A-B) and basolateral to apical (B-A)) across the cell monolayer was monitored over a 2-hr time period in order to evaluate the efflux ratio, an indicator of whether the compound undergoes significant active efflux or not. The permeability coefficient (Papp) is calculated from the equation: […]
Where dQ/dt is the rate of permeation of the drug across the cells, Co is the donor compartment concentration at time zero and A is the area of the cell monolayer. Co is obtained from analysis of the dosing solution at the start of the experiment. The analysis method used was LCMS quantification.
A permeability of (Papp A-B)<1.0×10^−6 cm/s is considered low, whereas a permeability of (Papp A-B)>1.0×10^−6 cm/s is considered high. A significant efflux is generally associated with an efflux ratio above 3.0 and a (Papp B-A)>1.0×10^−6 cm/s in these assay conditions.

[1] = quantification of counter-ion and metabolites in urine and feces of rats; type: in vivo; details: 500 mg/kg p.o., 48 hr collection
Procedure: A preliminary toxicological evaluation of the compound was done in 250-300 g male Sprague-Dawley rats. Animals were randomized into one of three dosing group, i.e. 250, 500 or 1,000 mg/kg administered by oral gavage. Following administration of the test article, animals were observed hourly for the first 8 hr post-dosing for clinical signs and twice daily thereafter until termination on Day 7. Three animals per group were sacrificed by exsanguination under general anesthesia at 24-hr post dosing or on Day 7 and a gross necropsy was performed in all animals. Additionally, all three rats having received the 500 mg/kg dose and scheduled for sacrifice on Day 7 were placed in individual metabolic cages immediately following test article administration, in order to collect feces and urine during 48 hr. Blood samples were collected terminally from each rat for hematology and serum chemistry evaluation.
After proper urine and feces samples preparation, trimebutine 3-thiocarbamoyl-benzenesulfonate and its two metabolites were assayed by HPLC-MS/MS (ESI-), in MRM mode. Calibration curves were prepared for each analyte, in both matrices (diluted blank urine and diluted blank feces).

Question: For NC(=S)c1cccc(S(=O)(=O)O)c1, which Permeability (Caco-2 cells) is on record?
Answer: low

Question: What about the “recovery of unchanged 3-thiocarbamoylbenzenesulfonate counter-ion in urine and feces” value [1] of the same compound?
Answer: quasi-quantitative recovery
